Data reported in patent US7776527B2, “Methods and compositions for reducing microbial induced apoptosis” (The Regents of the University of California, priority 2003, dated 2010).

Test system: bone marrow derived macrophages (BMDMs)
Format: cell-based, mouse

B1: IFN-β: type I IFN (protein, UniProt P01574 22-187, looked up)
Interferon beta: MSYNLLGFLQRSSNFQCQKLLWQLNGRLEYCLKDRMNFDIPEEIKQLQQFQKEDAALTIYEMLQNIFAIFRQDSSSTGWNETIVENLLANVYHQINHLKTVLEEKLEKEDFTRGKLMSSLHLKRYYGRILHYLKAKEYSHCAWTIVRVEILRNFYFINRLTGYLRN
In the case of B1, the “apoptosis of BMDMs, agent alone” value (IFN-β 1000 U/ml alone, 18 hrs) is reported as “did not induce apoptosis”, the “sensitization of BMDMs to LPS-induced apoptosis” value (with LPS, without SB202190) is reported as “rendered them susceptible to LPS-induced apoptosis” and the “effect on apoptosis upon incubation with LPS+SB202190” value (wt BMDMs or J774A.1 macrophage-like cells) is reported as “potentiated the apoptosis”.
